Measured values published in patent publication US10640492B2, “Tubulin inhibitor” (SHENZHEN NEPTUNUS PHARMACEUTICAL RESEARCH INSTITUTE CO., …, priority 2016, dated 2020).

Test system: tubulin in HuVEC cells
Assay: Action on microtubule function, α-tubulin staining in HuVEC
Format: cell-based, human
Details: 2 μM, 30 minutes, vs DMSO control
Text: Human umbilical vein endothelial cells (HuVEC from Cambrex) were used in this study.

In the case of COc1cc2c(c(OC)c1OC)-c1ccc(OC)c(=O)cc1[C@@H](NC(C)=O)CC2 [colchicine, reference compound], the cell membrane blebbing is reported as “induced” and the microtubule depolymerization is reported as “induced”.
